Bioassay records from PubChem BioAssay.
ERp5 block – inhibitors of ERp5-driven insulin aggregation, primary screen, biochemical, turbidity, absorbance 650 nm, single point; 350,000 compounds, 0.05% hits; inhibition, % at 9.99 µM; AID 651711, 2012; 90 min;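 active = mean replicate inhibition above about 25%, with every replicate also reaching it, limit read from the data, passing the limit was not always enough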
PDI turbidity – inhibitors of human PDI, primary screen, biochemical, turbidity, single point, plate reader. 350,000 compounds, 0.052% hits. inhibition, % at 10 µM. AID 588391, 2011. PDI insulin aggregation turbidity, A650, 90 min;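 active = mean inhibition across replicates of 30% or more, whatever share of single replicates reach that level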
NR1D1 modulator – modulators of Rev-erb alpha DNA binding, primary screen, biochemical, FITC-DNA, fluorescence polarization, uHTS; Nuclear receptor subfamily 1 group D member 1 (Homo sapiens), P20393; Rev-erbα–FITC-DNA binding, 90 min; activity, % at 10 µM; 370,000 compounds, 0.79% hits;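 active = activity above about 14%, limit read from the data; passing the limit was not always enough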
Yeast UUG start – modulators of yeast start codon fidelity, primary screen, whole organism, S. cerevisiae, single point, plate reader. S. cerevisiae UUG-firefly luciferase reporter, luminescence/redox ratio. activity score, % at 18.7 µM. 350,000 tested, 0.13% active;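 active = replicate mean at a twofold rise or more, about +100% in these data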;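 also: firefly luciferase made from a UUG start codon reports start codon fidelity; reporter light over untreated wells divided by growth signal over untreated wells; some hits fall short of that in this replicate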
GSIS activator – GLuc luminescence reporter in INS-1E cells, primary screen for activators of glucose-dependent secretion of insulin; activation, % at 16.6 µM; AID 743287, 2014; 370,000 compounds, 0.61% hits; INS-1E GLuc reporter insulin secretion, 2-3 h;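 active = lowest replicate activation of at least 40%, so every replicate reaches that level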
SMARCA2 act – SMARCA2 (BRM) function activators, primary screen, cell-based, luminescence, high throughput | activation, % at 9.1 µM | 370,000 compounds, 1% hits | MG213 cells, MMTV-luciferase reporter, dexamethasone, overnight | AID 652017, 2013; in the data active = activation above about 7.8%
Rev-erbA confirm – modulators of Rev-erb alpha DNA binding, confirmation, biochemical, FITC-DNA, fluorescence polarization, single point. 90 min. shares compounds with NR1D1 modulator. 3,000 compounds, 61% hits. activation, % at 25 µM;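 active = activation at or above a set limit, or at least 3 SD above the negative control mean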
RORg counter – modulation of RORgamma DNA binding, dose response, counter-screen for Rev-erb alpha modulator project, biochemical, fluorescence polarization, FITC-DNA | shares compounds with NR1D1 modulator | IC50, µM | 910 compounds, 8% hits | purified RORgamma protein-FITC-DNA binding;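 active = Compounds whose fitted half-maximal concentration for disrupting protein-DNA binding is below 10 micromolar; the record names Rev-erb in its text, so the target is in doubt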
Numbers stand for hits; n = inactive; x = no result. Compounds with a hit are over-represented: about 2.1% of the library has one in this group of screens.

SMILES	ERp5 block	PDI turbidity	NR1D1 modulator	Yeast UUG start	GSIS activator	SMARCA2 act	Rev-erbA confirm	others
COc1cccc(C2NC(=O)c3sc(=S)n(-c4ccccc4)c3N2)c1 (stereo not drawn)	x	n	n	n	n	n	x
COc1ccc(OC)c(C2NC(=O)c3sc(=S)n(-c4ccccc4)c3N2)c1 (stereo not drawn)	x	n	39	n	x	n	n
Cc1ccc(-c2cnc3c(c2)C(=O)N([C@@H](C)CO)C[C@@H](C)[C@H](CN(C)C(=O)c2cccnc2)O3)cc1	n	x	x	n	n	x	x
COc1ccc(CC(=O)Nc2nn(C)c3nc4c(C)cccc4cc23)cc1	n	n	28	n	x	n	n
O=[N+]([O-])c1ccc(N=Nc2ccc(O)cc2O)cc1	x	n	37	n	n	n	23
O=C(Cn1c2ccccc2c(=O)c2ccccc21)Nc1cccc(F)c1	n	n	28	x	n	n	n
O=C(Cn1c(=O)c(=O)n(Cc2ccccc2)c2ccc(Cl)cc21)Nc1cccc(F)c1	x	n	44	n	n	n	24
C[C@H]1CN([C@@H](C)CO)C(=O)c2cc(C#Cc3ccccc3F)cnc2O[C@@H]1CN(C)C(=O)C1CCC1	n	x	x	n	n	x	x
Cc1c(C)c2ccc(OCC(=O)Nc3ccc(S(N)(=O)=O)cc3)c(C)c2oc1=O	n	n	25	x	n	n	n
Cc1c(OCC(=O)Nc2cccnc2)ccc2c3c(c(=O)oc12)CCC3	n	n	n	n	n	n	x
O=C(C[C@@H]1C[C@H]2c3cc(NC(=O)NC4CCCCC4)ccc3O[C@H]2[C@H](CO)O1)NCC(F)(F)F	n	x	x	n	n	x	x
O=C(NCc1ccco1)c1ccc(Cn2c(=O)c3ccccc3n(Cc3cccc(F)c3)c2=O)cc1	x	n	53	n	x	n	37	RORg counter=n
Cc1ccc2c(c1C)NC(=O)CC(c1ccccc1O)=N2	n	n	204	x	n	n	140	RORg counter=n
COc1ccc(-n2nc3ccc(NS(C)(=O)=O)cc3n2)cc1Cl	x	n	23	x	x	n	18
COc1ccccc1CNc1ncnc2cc(Cl)ccc12	n	n	180	x	n	n	137	RORg counter=n
COc1ccc(CNc2ncnc3cc(Cl)ccc23)cc1OC	n	n	n	x	n	n	x
OC[C@H]1[C@@H](c2ccc(-c3cccnc3)cc2)[C@H]2CN(CC3CC3)CCCCN21	n	x	x	n	n	x	x
COc1ccc(CN(C)C[C@@H]2Oc3ccc(NS(=O)(=O)c4cccs4)cc3CC(=O)N([C@@H](C)CO)C[C@H]2C)cc1	n	x	x	x	n	x	x
COc1ccc(-c2c(C)sc(NC(=O)c3ccnn3C)c2C#N)cc1	n	n	47	x	n	n	27
O=C(Nc1ccc(-c2nc3ccccc3s2)c(O)c1)C1=COCCO1	x	n	87	x	n	n	n
O=C(Nc1ccc(-c2nc3ccccc3s2)cc1)C1=COCCO1	x	n	n	n	n	n	x
O=C(Nc1ccc(O)c(-c2nc3ccccc3s2)c1)C1=COCCO1	n	n	494	n	n	n	259	RORg counter=n
C[C@@H]1CCCCO[C@H](CN(C)C(=O)c2ccncc2)[C@@H](C)CN([C@@H](C)CO)C(=O)c2cc(NC(=O)C3CCCCC3)ccc2O1	n	x	x	n	n	x	x
Cc1nc2ncc(Br)cc2[nH]1	n	n	n	x	n	n	x
Cc1ccc(-c2nc3cc(Br)cnc3nc2-c2ccc(C)cc2)cc1	n	n	26	x	n	n	n
SMILES	ERp5 block	PDI turbidity	NR1D1 modulator	Yeast UUG start	GSIS activator	SMARCA2 act	Rev-erbA confirm	others
COC(=O)Nc1nc(-c2ccccc2)c(C(=O)c2ccc(Cl)cc2)s1	x	n	30	n	x	n	31
O=C(Nc1nc(-c2ccccc2)c(C(=O)c2ccccc2)s1)c1ccc(S(=O)(=O)N2CCCCC2)cc1	x	n	23	n	n	n	85	RORg counter=n
CCOC(=O)Nc1nc(-c2ccccc2)c(C(=O)c2ccccc2)s1	x	n	n	n	x	n	x
c1cnc2nc3c4ccccc4c4ccccc4c3nc2c1	n	n	n	n	x	n	x
Brc1cccc(-c2nc3cccnc3nc2-c2cccc(Br)c2)c1	n	n	14	n	n	n	n
COc1ccc2cc(C(=O)N/N=C/c3sc4ccccc4c3O)ccc2c1	n	n	28	x	n	n	27
COc1ccc(NC(=O)Nc2ccc3c(c2)C(=O)N([C@@H](C)CO)C[C@H](C)[C@@H](CN(C)C(=O)Nc2ccc4c(c2)OCO4)OCCCC[C@H](C)O3)cc1	n	x	x	n	n	x	x
Cc1cc(C)c(Cn2c3ccccc3c3cnn(CC(=O)NCc4ccccn4)c(=O)c32)c(C)c1	n	n	39	n	n	n	18
Cc1ccccc1Cn1c2ccccc2c2cnn(CC(=O)NCc3ccccn3)c(=O)c21	n	n	n	n	n	n	x
Cc1ccc(SCc2cc(=O)[nH]c(/N=C(\N)Nc3ccccc3Sc3ccccc3)n2)cc1	x	n	n	x	n	n	x
COc1ccccc1N/C(N)=N/c1nc(CSc2ccc(C)cc2)cc(=O)[nH]1	x	n	31	n	x	n	34	RORg counter=n
COCC(=O)N1C[C@@H]2[C@H](c3ccccc31)[C@@H](CO)N2Cc1ccccc1Cl	n	x	x	n	n	x	x
C[C@H](CO)N1C[C@H](C)[C@H](CN(C)C(=O)Nc2ccc(F)cc2)Oc2ccc(NC(=O)Nc3ccc4c(c3)OCO4)cc2CC1=O	x	x	x	n	n	x	x
CCOc1ccccc1NC(=O)Cn1cnc2c(nnn2-c2cccc(OC)c2)c1=O	n	x	n	n	n	n	x
COc1cccc(-n2nnc3c(=O)n(CC(=O)Nc4ccccc4C)cnc32)c1	n	x	23	n	n	n	n
COc1ccc(S(=O)(=O)N(C)C[C@@H]2OCCCC[C@H](C)Oc3ccc(NC(=O)NC(C)C)cc3C(=O)N([C@@H](C)CO)C[C@H]2C)cc1	n	x	x	n	n	x	x
Cc1c(C)c2cc3c(C)coc3cc2oc1=O	n	n	n	n	n	n	x
Cc1coc2cc3oc(=O)c(Cc4ccccc4)c(C)c3cc12	n	n	32	x	n	n	43	RORg counter=n
CO[C@H]1CC[C@@H]2CCOc3ccc(C#N)cc3C(=O)N(C)C[C@@H](C)C(=O)N(C)C[C@@H]1O2	n	x	x	x	n	x	x
Cc1ccc(C(=O)NCCN(C)C)c(C)c1	x	n	n	n	x	n	x
CNc1c2cccc(C)c2nc2c(C(=O)NCCN(C)C)cccc12	n	n	15	x	n	n	n
